This is a sample that favours compounds with a hit; in the whole collection about 1.2% have one here.
Yeast UUG start: modulators of start codon recognition fidelity in yeast; S. cerevisiae UUG-firefly luciferase reporter, luminescence/redox ratio; activity score, % at 18.7 µM; 0.13% of 350,000 active;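 active = replicate mean at a twofold rise or more, about +100% in these data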;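 also: firefly luciferase made from a UUG start codon reports start codon fidelity; reporter light over untreated wells divided by growth signal over untreated wells; some hits fall short of that in this replicate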
Statin myotox sup: suppression of simvastatin myotoxicity | actives 0.78% (n = 330,000) | rescue of ATP level, % at 7.49 µM | C2C12 myotubes + simvastatin, ATP luminescence, 48 h; scaled: DMSO 0, geranylgeraniol control 100;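 active = mean ATP rescue above about 67%, or every replicate alone reaching that limit, limit read from the data, passing the limit was not always enough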;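 note: myotubes were challenged with 10 µM simvastatin during compound exposure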
N-glyco inh: blocks N-linked glycosylation in D54 reporter cells; D54 ERlucT glycosylation luciferase reporter, 24 h; percent of 100 nM tunicamycin response; reporter increase, % at 12.5 µM; actives 0.23% (n = 360,000); AID 588692;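 active = mean luciferase reporter signal, scaled so untreated is 0 and the glycosylation-blocking control 100, at or above a set limit in every replicate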;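 note: luciferase carries N-glycosylation sites so blocking glycosylation raises the light; 0% = median of neutral control wells and 100% = median of 100 nM tunicamycin wells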
Cneo AK release: Cryptococcus neoformans lysis via adenylate kinase release; C. neoformans lysis, adenylate kinase release luminescence, 4 h; normalised: neutral wells 0, clomiphene wells 100; lysis activity, % at 15 µM; actives 0.2% (n = 360,000); AID 651654;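 active = mean lysis activity across replicates of at least 80%, whatever share of replicates individually reach that level; inactive = mean lysis activity below 80%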
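Material: C. neoformans cells; Schedule: 4 h static compound exposure, 37 °C, read 1 h post-reagent; Measured by: adenylate kinase release luminescence; Read-out: signal increase indicating cell lysis; Controls: Clomiphene as positive lysis control.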
miR122 inh: inhibitors of miR-122 in Huh7 cells. Huh7 miR-122 Renilla luciferase sensor, 48 h; neutral wells = 0, positive control = 100. activation (reporter increase), % at 12.5 µM. actives 0.3% (n = 340,000);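 active = mean replicate activation score at least 90 and every replicate individually at or above 90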;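 note: higher luciferase means less miR-122 activity so hits act as miR-122 inhibitors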
Active calls of the source: *; [ ] = another dose, or the depositor's remark.

Screening C[C@@H]1CN([C@H](C)CO)C(=O)c2cccc(NC(=O)Nc3ccc(F)cc3)c2O[C@@H]1CN(C)Cc1ccncc1 returned Yeast UUG start -15, Statin myotox sup 3, Cneo AK release 1 and miR122 inh 0[16.7 µM].
Cc1ccc(S(=O)(=O)N(C)C[C@H]2Oc3ccc(NS(=O)(=O)c4ccc(F)cc4)cc3C(=O)N([C@@H](C)CO)C[C@@H]2C)cc1 was read as Yeast UUG start 10, Statin myotox sup -26, Cneo AK release 0 and miR122 inh -2[16.7 µM].
For Fc1ccccc1NC(=S)NN(Cc1ccccc1)c1ccccc1 the results were N-glyco inh -2 and miR122 inh 10.
`CC(C)c1ccccc1NC(=S)NN(Cc1ccccc1)c1ccccc1` gave Yeast UUG start -9, N-glyco inh -1, Cneo AK release 231* and miR122 inh 43.
COc1ccc(CN(C)C[C@H]2OCCCC[C@H](C)Oc3ccc(NC(=O)Nc4ccc(OC)cc4)cc3C(=O)N([C@H](C)CO)C[C@H]2C)cc1 was read as Yeast UUG start 23, Cneo AK release 4 and miR122 inh -5[16.7 µM].
`COC(=O)c1cc(Br)c(=O)n(CCN2CCOCC2)c1` gave Yeast UUG start -24, Statin myotox sup 104*, N-glyco inh 1, Cneo AK release -3 and miR122 inh -8.
For CCCN(C)C[C@@H]1OCCCC[C@@H](C)Oc2ccc(NS(=O)(=O)c3cccs3)cc2C(=O)N([C@@H](C)CO)C[C@@H]1C the results were Yeast UUG start -6, Cneo AK release 3 and miR122 inh 7[16.7 µM].
For COc1ccc(-c2ccc([C@H]3[C@H](CO)N4CCCCN(C(=O)NC(C)C)C[C@@H]34)cc2)cc1 the results were Yeast UUG start -3, Statin myotox sup 39, Cneo AK release 0 and miR122 inh 2[16.7 µM].
Screening O=C(NCC(F)(F)F)[C@@H]1[C@@H](CO)[C@@H]2Cn3c(cccc3=O)[C@@H]2N1Cc1cccc(F)c1 returned Statin myotox sup -5 and Cneo AK release 15.
For COc1ccc(S(=O)(=O)N(C(C)=O)c2ccc3oc(=O)sc3c2)cc1 the results were Yeast UUG start -4, Statin myotox sup 87*, N-glyco inh 3, Cneo AK release 3 and miR122 inh -8.
Screening O=C(NO)c1ccc(OC(F)F)cc1 returned N-glyco inh 36*.
Screening O=C(N/N=C/c1ccc(OC(F)F)cc1)c1ccc(Br)cc1 returned Yeast UUG start -19, N-glyco inh -2, Cneo AK release -4 and miR122 inh 5.
`O=C(NCCOC(=O)c1c(F)cccc1Cl)c1c(F)cccc1Cl` gave Yeast UUG start -16, Statin myotox sup 8, N-glyco inh 3, Cneo AK release 0 and miR122 inh -2.
`CCn1c2ccccc2c2cc(/C(C)=N/O)ccc21` gave Yeast UUG start -18, Statin myotox sup -9, N-glyco inh 0, Cneo AK release 2 and miR122 inh 0.
Screening CCn1c2ccccc2c2cc(N)ccc21 returned Yeast UUG start 0, Statin myotox sup 108*, N-glyco inh -2, Cneo AK release -3 and miR122 inh 3.
Screening COc1ccccc1-c1cnc(C(O)c2cc(Cl)cc(Cl)c2)[nH]1 (stereo not drawn) returned Yeast UUG start -23, Statin myotox sup 12, N-glyco inh 0, Cneo AK release 1 and miR122 inh 7.
For OC(c1ccc(F)cc1)c1ncc(-c2ccccc2F)[nH]1 (stereo not drawn) the results were Yeast UUG start -16, Statin myotox sup -2, N-glyco inh 0, Cneo AK release -2 and miR122 inh 146*.
`OC(c1cc(Cl)cc(Cl)c1)c1ncc(-c2ccccc2F)[nH]1` (stereo not drawn) gave Yeast UUG start -10, Statin myotox sup 4, N-glyco inh -2, Cneo AK release -4 and miR122 inh 150*.
`NC(=O)C1CCN(C2=C(Cl)C(=O)c3ccccc3C2=O)CC1` gave Yeast UUG start -13, Statin myotox sup -61, N-glyco inh 78*, Cneo AK release -6 and miR122 inh -70.
COc1ccccc1-c1cnc2c(c1)C(=O)N([C@@H](C)CO)C[C@@H](C)[C@H](CN(C)C(=O)c1ccncc1)O2 was read as Yeast UUG start -6, Statin myotox sup 5, Cneo AK release -2 and miR122 inh -10[16.7 µM].
C=CCn1c(=O)c2c(nc3n2CC(C)CN3c2cccc(OC)c2)n(C)c1=O (stereo not drawn) was read as Yeast UUG start -6, Statin myotox sup 120*, N-glyco inh 4, Cneo AK release -2 and miR122 inh 1.
N=c1c(C(=O)NC2CCCCC2)cc2c(=O)n3ccccc3nc2n1CCc1ccccc1 was read as Yeast UUG start -8, Statin myotox sup -23, N-glyco inh -1, Cneo AK release 7 and miR122 inh 3.
`CCCNC(=O)N(C)C[C@H]1Oc2ncc(C#CC3CCCCC3)cc2C(=O)N([C@H](C)CO)C[C@@H]1C` gave Yeast UUG start 17, Statin myotox sup 14, Cneo AK release -1 and miR122 inh 24[16.7 µM].
For CC#CC#Cc1cccc(=O)o1 the results were Yeast UUG start -2, Statin myotox sup 97*, N-glyco inh 36*, Cneo AK release 0 and miR122 inh 0.
CCN(CC(=O)Nc1ccccc1OC)C(=O)c1ccc(N(C)S(=O)(=O)c2ccc(C)cc2)cc1 was read as Yeast UUG start 4, Statin myotox sup -18, N-glyco inh 1, Cneo AK release 0 and miR122 inh -5.
CC(Oc1ccc(Cl)cc1Cl)C(=O)N(Cc1ccco1)C1CCS(=O)(=O)C1 (stereo not drawn) was read as Yeast UUG start 9, Statin myotox sup 115*, N-glyco inh -2, Cneo AK release 1 and miR122 inh -1.
Screening COc1ccc(NC(=O)N(C)C[C@H]2OCCCC[C@H](C)Oc3ccc(NC(=O)Nc4ccc(C(F)(F)F)cc4)cc3C(=O)N([C@@H](C)CO)C[C@H]2C)cc1 returned Yeast UUG start -2, Statin myotox sup -28, Cneo AK release -2 and miR122 inh 1[16.7 µM].
COc1ccc(CCn2c(=N)c(C(=O)NCC3CCCO3)cc3c(=O)n4cccc(C)c4nc32)cc1 (stereo not drawn) was read as Yeast UUG start -23, Statin myotox sup -8, N-glyco inh 41* and Cneo AK release 17.
Clc1ccc(Sc2oc(/C=N/n3cnnc3)cc2Br)cc1 was read as Yeast UUG start -4, Statin myotox sup 149*, N-glyco inh 1, Cneo AK release 5 and miR122 inh -10.
O=C(CN1C(=O)COc2ccccc21)NCCN1CCOCC1 was read as Yeast UUG start -14, Statin myotox sup -23, N-glyco inh 0 and Cneo AK release 7.
`CCN(CC)S(=O)(=O)c1ccc2c(c1)N(CC(=O)NCCN1CCOCC1)C(=O)CO2` gave Yeast UUG start 1, Statin myotox sup 116*, N-glyco inh -1, Cneo AK release -5 and miR122 inh -1.

An excerpt from above in order of heavy-atom count, rising:
O=C(CN1C(=O)COc2ccccc21)NCCN1CCOCC1 was read as Yeast UUG start -14, Statin myotox sup -23, N-glyco inh 0 and Cneo AK release 7.
For Fc1ccccc1NC(=S)NN(Cc1ccccc1)c1ccccc1 the results were N-glyco inh -2 and miR122 inh 10.
Screening C[C@@H]1CN([C@H](C)CO)C(=O)c2cccc(NC(=O)Nc3ccc(F)cc3)c2O[C@@H]1CN(C)Cc1ccncc1 returned Yeast UUG start -15, Statin myotox sup 3, Cneo AK release 1 and miR122 inh 0[16.7 µM].
Cc1ccc(S(=O)(=O)N(C)C[C@H]2Oc3ccc(NS(=O)(=O)c4ccc(F)cc4)cc3C(=O)N([C@@H](C)CO)C[C@@H]2C)cc1 was read as Yeast UUG start 10, Statin myotox sup -26, Cneo AK release 0 and miR122 inh -2[16.7 µM].

High-throughput results deposited in PubChem BioAssay by Broad Institute.
